We go through one substance from patent publication US20120100077A1, “MIXTURE OF AMPHIPATHIC MOLECULES AND METHOD FOR MODIFYING CELL MEMBRANES BY MEANS OF FUSION” (priority 2009, published 2012).

In this assay the test system is cell membrane. The assay can be described thus: Fusion quality of R groups bound to amphipathic molecules B in the fusion mixture.

As to “1,2-dioleoyl-sn-glycero-3-phosphoethanolamine-N-(carboxyfluorescein) (ammonium salt)”, the Fusion quality came to 3.
